Laboratory results: BindingDB's records for PubMed 7520908 (Janssen Research Foundation, 1994)

Protein sequences, listed by entry. Tags and fused reporters are not part of them.
UniProt P18901, whole entry: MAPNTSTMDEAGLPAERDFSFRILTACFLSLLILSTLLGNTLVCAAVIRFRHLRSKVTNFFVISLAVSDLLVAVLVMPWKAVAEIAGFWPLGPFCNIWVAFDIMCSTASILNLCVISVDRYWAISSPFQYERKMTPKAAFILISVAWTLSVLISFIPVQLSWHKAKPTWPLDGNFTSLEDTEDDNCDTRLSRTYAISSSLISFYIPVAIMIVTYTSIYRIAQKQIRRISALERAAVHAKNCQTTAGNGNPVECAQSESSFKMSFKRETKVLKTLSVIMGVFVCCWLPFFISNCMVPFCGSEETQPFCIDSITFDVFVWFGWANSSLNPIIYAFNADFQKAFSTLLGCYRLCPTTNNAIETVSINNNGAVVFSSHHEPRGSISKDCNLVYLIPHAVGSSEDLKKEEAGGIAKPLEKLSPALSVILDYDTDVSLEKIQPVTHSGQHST

Target: D(1A) dopamine receptor (Rattus norvegicus, UniProt P18901)

With `Cc1nc2n(c(=O)c1CCN1CCC(c3noc4cc(F)ccc34)CC1)CCCC2` [3-{2-[4-(6-Fluoro-benzo[d]isoxazol-3-yl)-piperidin-1-yl]-ethyl}-2-methyl-6,7,8,9-tetrahydro-pyrido[1,2-a]pyrimidin-4-one(risperidone)] the Ki was > 10 µM.
